Some compounds may have been tested in ways that are not shown here.
Molecular target: NEST (recombinant esterase domain of NTE) (Homo sapiens, UniProt Q8IY17)
Conditions: inhibitor added to phosphate buffer after steady phenyl valerate signal

The chains behind the UniProt entries cited, without tags or fusion partners. Residues count along the entry.
UniProt Q8IY17, 775-1264: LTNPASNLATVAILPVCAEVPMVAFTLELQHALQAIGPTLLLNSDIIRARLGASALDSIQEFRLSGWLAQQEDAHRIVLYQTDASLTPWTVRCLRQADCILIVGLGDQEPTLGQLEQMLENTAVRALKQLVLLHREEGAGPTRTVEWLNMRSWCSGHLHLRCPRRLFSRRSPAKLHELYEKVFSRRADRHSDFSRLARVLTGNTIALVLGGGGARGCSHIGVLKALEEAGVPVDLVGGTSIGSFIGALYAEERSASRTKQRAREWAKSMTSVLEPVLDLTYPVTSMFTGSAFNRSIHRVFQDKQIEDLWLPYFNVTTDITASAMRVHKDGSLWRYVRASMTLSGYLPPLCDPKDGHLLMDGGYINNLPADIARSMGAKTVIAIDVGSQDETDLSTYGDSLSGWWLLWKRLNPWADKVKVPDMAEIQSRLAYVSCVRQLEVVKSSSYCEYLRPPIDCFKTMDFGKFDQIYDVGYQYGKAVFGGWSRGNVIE

## CC(C)NP(=O)(F)NC(C)C
  drop in current after addition of NEST inhibitor (dose dependence): dose-dependent response

Reference: patent publication US8623196B2 (priority 2007, dated 2014)
